Results published in article PMC3375359 (Journal of Medicinal Chemistry, 2012).

Sequences of proteins named here, by UniProt entry; tags and fusion partners are left off.
UniProt P35372, whole entry: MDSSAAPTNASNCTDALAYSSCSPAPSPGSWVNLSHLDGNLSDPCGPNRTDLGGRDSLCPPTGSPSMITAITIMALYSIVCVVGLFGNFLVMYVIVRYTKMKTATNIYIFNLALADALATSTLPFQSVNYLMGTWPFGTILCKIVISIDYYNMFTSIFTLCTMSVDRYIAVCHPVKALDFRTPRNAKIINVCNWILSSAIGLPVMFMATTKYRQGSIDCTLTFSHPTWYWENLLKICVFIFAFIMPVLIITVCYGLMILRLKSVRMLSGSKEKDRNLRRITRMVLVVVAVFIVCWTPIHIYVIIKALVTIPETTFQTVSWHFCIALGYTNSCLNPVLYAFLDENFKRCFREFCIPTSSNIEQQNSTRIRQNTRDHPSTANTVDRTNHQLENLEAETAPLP

Columns and labels:
human MOR = human MOR (Homo sapiens, UniProt P35372); format: binding
human μ opioid receptor = human μ opioid receptor (Homo sapiens, UniProt P35372); test: [35S]GTPγS binding mediated by the mu opioid receptor; format: biochemical

Structure (SMILES) | Selectivity MOR/KOR/DOR (human MOR) | Emax (human μ opioid receptor; read-out: Emax (% maximal stimulation over basal)) [%] | functional activity at MOR (agonist character) (human μ opioid receptor; [35S]GTPγS binding assay, in words)
Oc1ccc2c(c1)[C@@]13CCCC[C@H]1[C@@H](C2)N(CC1CCC1)CC3 [Butorphan, reference compound] | 3/1/75 | 50 ± 2.5 | –
COc1ccccc1CNc1ccc2c3c1O[C@H]1[C@@H](O)C=C[C@H]4[C@@H](C2)N(C)CC[C@@]341 [Compound 11a, 3-(2′-methoxybenzyl)amino-7,8-didehydro-4,5-epoxy-17-methyl-(5α,6α)-morphinan-6-ol] | – | – | full agonists
CN1CC[C@]23CCCC[C@H]2[C@H]1Cc1ccc(O)cc13 [Levorphanol, reference compound] | 1/11/20 | – | –
